Assay results reported in paper PMC9868778 (Planta Medica, 2022).

Experiments:
[1] = after 360 min; antipyrine from control perfusions
[2] = Stability of compounds in PBS, perfusion medium and placental homogenate; assay type: in vitro ADME, human; conditions: 360 min, 4 °C and 37 °C

| SMILES | fetal-maternal concentration ratio (FM ratio) [1] | stability data in PBS compared with PM [2] |
| --- | --- | --- |
| Cc1cc(=O)n(-c2ccccc2)n1C [antipyrine] | 0.95 | very comparable |
| CN(C)CCCC1(c2ccc(F)cc2)OCc2cc(C#N)ccc21 (stereo not shown) [citalopram] | 0.63 | very comparable |
